Values of other authors as cited in patent US20170071990A1 (published 2017).

Columns and labels:
[1] = in vivo; cited from earlier work
[2] = in vitro and in vivo studies; cited from earlier work

OB(O)O [boric acid]
concentrations of boric acid considered safe [1]: up to 5% | mutagenic or teratogenic properties [2]: no mutagenic or teratogenic properties were observed
